Columns and labels:
[1] = biological target: T1, human Smoothened receptor (Homo sapiens, UniProt Q99835); assay: Saturation of binding of 3H-(7d) to membranes of HEK-hSmo cells; settings: tested form: HCl
[2] = biological target: T1, human Smoothened receptor; assay: Kinetics of association of 3H-(7d) with membranes of HEK-hSmo cells; settings: tested form: HCl; for Half-association time: 0.35 nM radioligand

Chains of the proteins cited; added tags and fusions are not shown. Residues count along the entry.
UniProt Q99835, 28-787 limits assumed: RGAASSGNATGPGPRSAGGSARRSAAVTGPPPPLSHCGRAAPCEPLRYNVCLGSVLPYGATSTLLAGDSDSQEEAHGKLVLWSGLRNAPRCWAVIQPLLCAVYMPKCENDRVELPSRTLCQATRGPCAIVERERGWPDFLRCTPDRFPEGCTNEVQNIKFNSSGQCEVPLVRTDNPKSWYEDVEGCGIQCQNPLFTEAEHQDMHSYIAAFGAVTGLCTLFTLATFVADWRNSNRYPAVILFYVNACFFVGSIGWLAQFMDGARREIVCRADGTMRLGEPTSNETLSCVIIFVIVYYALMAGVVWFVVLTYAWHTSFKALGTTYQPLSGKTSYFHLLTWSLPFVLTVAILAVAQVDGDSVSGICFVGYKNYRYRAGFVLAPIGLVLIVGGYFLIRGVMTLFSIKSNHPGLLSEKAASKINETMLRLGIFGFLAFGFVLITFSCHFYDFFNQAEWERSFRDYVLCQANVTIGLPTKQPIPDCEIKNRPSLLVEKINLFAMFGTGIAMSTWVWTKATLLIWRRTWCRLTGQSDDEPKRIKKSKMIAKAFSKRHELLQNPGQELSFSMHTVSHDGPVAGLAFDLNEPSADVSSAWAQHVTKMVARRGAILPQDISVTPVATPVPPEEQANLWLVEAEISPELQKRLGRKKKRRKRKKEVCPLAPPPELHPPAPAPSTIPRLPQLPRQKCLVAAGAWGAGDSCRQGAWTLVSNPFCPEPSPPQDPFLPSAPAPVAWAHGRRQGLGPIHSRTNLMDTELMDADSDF

Which results are given for `[3H]C(c1ccccc1)C([3H])c1ccc(C(=O)Nc2cc(NC(=N)NC(=O)c3cc(OC)c(OC)c(OC)c3)ccc2C)cc1` (stereo not shown)?
Bmax of specific binding ([1]; HEK-hSmo membranes (2 μg of proteins)): 1086±91 cpm; Kd ([1]; read-out: Kd of specific binding, HEK-hSmo membranes, 3 hours at 37° C., nonspecific with 1 μM GDC-0449): 0.3 nM; Half-association time ([2]; 25° C.): 71 min; Time of incubation to reach equilibrium of specific binding ([2]; 25° C., not reached): > 5 h; Half-association time ([2]; 37° C.): 33 min; Time of incubation to reach equilibrium of specific binding ([2]; 37° C.): 3 h; Nonspecific binding ([2]; beyond 5 minutes of incubation, defined with 0.1 μM of GDC0449): 0.4 % of the total binding

Source: US8981149B2, “Compounds modulating the hedgehog protein signaling pathway, marked forms thereof, and applications” (Centre National De La Recherche Scientifique, priority 2011, dated 2015)
